Test results: paper PMC12289066, “Identification of glutathione transferase (GST P1) inhibitors via a high-throughput screening assay and implications as alternative treatment options for breast cancers” (PLOS One, 2025)

The chains behind the UniProt entries cited, without tags or fusion partners. Residues count along the entry.
UniProt P09211, 2-210 limits assumed: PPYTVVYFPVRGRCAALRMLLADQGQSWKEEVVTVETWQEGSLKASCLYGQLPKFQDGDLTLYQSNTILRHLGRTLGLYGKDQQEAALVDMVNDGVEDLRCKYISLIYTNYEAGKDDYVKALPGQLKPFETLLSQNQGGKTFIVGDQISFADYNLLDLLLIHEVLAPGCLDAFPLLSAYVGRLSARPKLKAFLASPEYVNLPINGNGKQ

Molecular target: T1, GST P1-1 (Homo sapiens, UniProt P09211)
T1 construct: purchased Sigma-Aldrich
Test: High-throughput GST P1-1 inhibition assay (384-well screen, CDNB/GSH)
Type: biochemical
Protocol: Each drug compound was added to the respective well at a volume of 80 nL of 10 mM stock solution in DMSO, yielding a final compound concentration of 10 μM and a final DMSO concentration of 0.1%. Each plate’s first and last two columns were used as negative (no compound added – 80 nL per well of DMSO) and positive (80 nL of EA added with a final concentration of 50 μM) controls, respectively. The Gyger Certus Flex dispenser was set up using a freshly prepared 1 mM of GSH and 20 nM of GST P1-1, pH 7.4, in one syringe and 8 mM CDNB solution in pure ethanol in the other syringe. […] The plates were incubated for 2 h in the dark at 25°C and then the absorbance was of each well recorded on a BioTek Synergy NEO HTS multimode plate reader (Agilent®) at a wavelength of 340 nm.
The z’factor was calculated for each plate according to Zhang et al.. […] For each plate, the concentration of product was normalized by assigning a score of 0 (0%) to the negative control (average of maximal concentration of product measured in the presence of enzyme without any inhibitor) and a score of 1 (100%) was assigned to the positive control (average minimal concentration of product measured in the presence of enzyme with the reference inhibitor, i.e., EA). The experiment was performed in duplicate and the score for each drug compound was calculated as an average ± standard deviation. […]

Cc1ccc(-c2ccc(F)cc2COc2ccc(CCC(=O)O)cc2)cc1 [TUG-891]
Score: 0.783
